# Values of other authors in patent US10365286B2, “Chromophoric structures for lanthanide chelates” (RADIOMETER TURKU OY, priority 2014, dated 2019).
# Conditions: room temperature; cited from earlier work
substance,measurement,value
"europium chelate of 4-(2-(7-hexyloxy-9,9′-dihexylfluorenyl)ethynyl)-2,6-bis(diethylcarbamoyl)pyridine.[OTf]3",emission,no significant emission
